## scFv variants of Ab-95 (light chain) against a SARS-CoV-2 spike peptide

Data: MIT Lincoln Laboratory AlphaSeq set, Engelhart et al. 2022, doi:10.1038/s41597-022-01779-4, as distributed in FLAb.

All variants were tested on one target, the spike HR2 peptide PDVDLGDISGINAS (SARS-CoV-2).

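In library AAYL52, one, two or three CDR residues were substituted; doubles and triples were drawn at random. The assay is AlphaSeq: two haploid yeast populations carry antibody and antigen on their surface. Binding brings cells together so that they mate, and sequencing counts the barcode pairs among the diploids. Scores were corrected for input abundance and mapped to Kd with protein pairs of known affinity run in the same pool. Each pool was mated in three replicate cultures.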

Parent scFv Ab-95: VH joined to VL by three GGGGS repeats. Changes lie in the light chain CDRs alone.
VH: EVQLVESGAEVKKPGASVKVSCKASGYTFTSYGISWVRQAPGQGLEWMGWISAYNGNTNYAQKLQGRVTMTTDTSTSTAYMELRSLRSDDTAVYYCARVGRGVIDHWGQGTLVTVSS
VL: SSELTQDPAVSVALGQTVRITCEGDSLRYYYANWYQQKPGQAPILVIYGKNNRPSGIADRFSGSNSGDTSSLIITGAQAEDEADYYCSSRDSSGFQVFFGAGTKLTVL

Positions count from residue 1 of the parent VL; K50D puts D in place of K. Every variant below is changed at K50 of the VL (sequential numbering). Values are apparent Kd, the geometric mean of the replicates that gave a signal; lower means stronger binding. A pair that was not seen in any replicate is written "nd"; this usually means weak binding, but a binder can also be missed. Empty control strains, which show no peptide, gave a signal in 28% of pairings with library AAYL52; the median was 8.2 µM and 95% of these signals were weaker than 800 nM. No background was subtracted. The control count says in how many pairings with the empty strains this scFv gave a signal.

With K50D S55L Q96K the result was 770 nM (3 of 3 replicates; controls 0 of 9). With G49S K50Q S92T the result was 21 µM (1 of 3 replicates; controls 2 of 9). For S26R K50F R90L, the assay gave 22 µM (3 of 3 replicates; controls 3 of 9). The variant S26E K50S showed 700 nM (3 of 3 replicates; controls 2 of 9). For G24R L27S K50T, the assay gave 600 nM (3 of 3 replicates; controls 0 of 9). With S26P K50A the result was 770 nM (3 of 3 replicates; controls 3 of 9). The variant K50H S92W S93N showed 1.8 µM (2 of 3 replicates; controls 0 of 9). With K50W R53Y S92E the result was 4.3 µM (1 of 3 replicates; controls 3 of 9). The variant K50V G94T V97S showed 460 nM (2 of 3 replicates; controls 4 of 9).

For K50C S93A V97R, the assay gave nd (0 of 3 replicates; controls 3 of 9). For G49F K50C, the assay gave 15 µM (2 of 3 replicates; controls 3 of 9). The variant D25E S26G K50L gave 790 nM (3 of 3 replicates; controls 6 of 9). The variant Y29P K50T D91R showed 230 nM (2 of 3 replicates; controls 1 of 9). The variant G49L K50M F98W showed 8.9 µM (1 of 3 replicates; controls 2 of 9). For K50A R90P D91G, the assay gave 850 nM (3 of 3 replicates; controls 5 of 9). The variant Y29P K50E gave 200 nM (3 of 3 replicates; controls 6 of 9). For Y30F K50A S55N, the assay gave 570 nM (3 of 3 replicates; controls 5 of 9). With G24L A32K K50W the result was 6.3 µM (2 of 3 replicates; controls 8 of 9).

The variant K50L R53H F98I showed nd (0 of 3 replicates; controls 2 of 9). With L27W K50A R53L the result was 14 µM (3 of 3 replicates; controls 3 of 9). The variant G24T K50D P54G gave 3.6 µM (2 of 3 replicates; controls 4 of 9). The variant N33C K50T R53N gave nd (0 of 3 replicates; controls 0 of 9). The variant R28V Y30P K50V gave 310 nM (3 of 3 replicates; controls 2 of 9). The variant R28A K50T N52Q showed 920 nM (3 of 3 replicates; controls 1 of 9). The variant E23Y K50I D91N showed 5.2 µM (2 of 3 replicates; controls 3 of 9). For E23G K50E S92G, the assay gave 73 nM (3 of 3 replicates; controls 1 of 9). For E23I K50W Q96N, the assay gave 4.5 µM (3 of 3 replicates; controls 5 of 9).

For K50Q S55A R90P, the assay gave nd (0 of 3 replicates; controls 4 of 9). The variant E23V K50N N51M gave 4.5 µM (2 of 3 replicates; controls 0 of 9). The variant Y29I K50Y N51A showed nd (0 of 3 replicates; controls 2 of 9). The variant Y31N K50G R90I showed nd (0 of 3 replicates; controls 2 of 9). The variant K50A Q96A gave 2.1 µM (3 of 3 replicates; controls 3 of 9). The variant Y29E K50A R53V gave 5.4 µM (3 of 3 replicates; controls 4 of 9). The variant K50S N52G P54M gave 270 nM (3 of 3 replicates; controls 2 of 9). For K50W D91V S92L, the assay gave 3.4 µM (1 of 3 replicates; controls 4 of 9). With K50F N51G D91W the result was 8.4 µM (2 of 3 replicates; controls 1 of 9).

With G24C K50E D91F the result was 81 µM (1 of 3 replicates; controls 1 of 9). With G49D K50C S92M the result was nd (0 of 3 replicates; controls 0 of 9). With D25L K50G G94Y the result was 9.2 µM (2 of 3 replicates; controls 3 of 9).

The last 3 entries again:

| changes | apparent Kd | detected | empty controls |
|---|---|---|---|
| G24C K50E D91F | 81 µM | 1 of 3 | 1 of 9 |
| G49D K50C S92M | nd | 0 of 3 | 0 of 9 |
| D25L K50G G94Y | 9.2 µM | 2 of 3 | 3 of 9 |

In this assay the parent's reference entry averaged 200 nM; its copy inside this library read 180 nM.